These results are taken from BindingDB's records for doi:10.1021/jm049538w (Glaxosmithkline, 2005).

Protein sequences, listed by entry. Tags and fused reporters are not part of them.
UniProt P35968, whole entry: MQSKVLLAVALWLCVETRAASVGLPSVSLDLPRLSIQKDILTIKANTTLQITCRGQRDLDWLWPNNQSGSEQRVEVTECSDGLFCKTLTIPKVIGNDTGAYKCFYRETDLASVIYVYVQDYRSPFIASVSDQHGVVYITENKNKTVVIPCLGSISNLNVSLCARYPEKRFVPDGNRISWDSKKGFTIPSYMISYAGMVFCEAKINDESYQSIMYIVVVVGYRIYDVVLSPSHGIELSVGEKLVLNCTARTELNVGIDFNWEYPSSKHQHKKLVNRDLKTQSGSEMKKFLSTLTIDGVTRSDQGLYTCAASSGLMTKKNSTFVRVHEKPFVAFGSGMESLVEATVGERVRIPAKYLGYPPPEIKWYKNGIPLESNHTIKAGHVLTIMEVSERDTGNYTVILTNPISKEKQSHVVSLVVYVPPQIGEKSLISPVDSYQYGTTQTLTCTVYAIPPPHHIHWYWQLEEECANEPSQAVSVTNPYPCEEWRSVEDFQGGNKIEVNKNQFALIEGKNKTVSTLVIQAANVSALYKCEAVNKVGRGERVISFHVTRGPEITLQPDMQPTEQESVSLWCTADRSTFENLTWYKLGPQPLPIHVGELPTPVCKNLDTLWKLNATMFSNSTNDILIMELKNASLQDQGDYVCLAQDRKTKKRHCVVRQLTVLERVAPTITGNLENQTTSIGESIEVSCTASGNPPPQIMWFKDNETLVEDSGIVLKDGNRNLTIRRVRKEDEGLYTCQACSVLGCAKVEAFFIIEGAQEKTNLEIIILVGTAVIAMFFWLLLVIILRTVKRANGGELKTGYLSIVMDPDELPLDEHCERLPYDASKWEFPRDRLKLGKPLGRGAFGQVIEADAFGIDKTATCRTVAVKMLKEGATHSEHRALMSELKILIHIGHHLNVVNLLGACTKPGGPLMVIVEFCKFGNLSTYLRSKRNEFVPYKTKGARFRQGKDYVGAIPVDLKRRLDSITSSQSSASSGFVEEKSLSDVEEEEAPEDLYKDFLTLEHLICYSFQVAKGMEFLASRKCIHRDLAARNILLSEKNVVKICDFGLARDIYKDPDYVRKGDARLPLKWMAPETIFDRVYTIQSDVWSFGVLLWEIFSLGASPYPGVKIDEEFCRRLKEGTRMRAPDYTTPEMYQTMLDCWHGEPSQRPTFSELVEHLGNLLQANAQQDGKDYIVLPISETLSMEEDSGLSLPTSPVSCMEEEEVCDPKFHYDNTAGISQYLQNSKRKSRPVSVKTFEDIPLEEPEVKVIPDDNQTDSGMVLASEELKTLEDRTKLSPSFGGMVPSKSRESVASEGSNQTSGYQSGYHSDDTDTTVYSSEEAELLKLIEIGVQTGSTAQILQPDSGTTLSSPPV

This assay deals with Vascular endothelial growth factor receptor 2 (Homo sapiens, UniProt P35968). Put plainly: Homogeneous Time-resolved Fluorescence (HTRF) Assay. The source says: The assay was using baculovirus-expressed recombinant protein kinase purified as the intracellular domain fused by GST tag, interacting with biotinylated peptide substrate. HTRF is based on the proximity of europium cryptate (donor fluorophore)-labeled antiphosphotyrosine and streptavidin labeled with APC(allophycocyanin), which have been brought together by a binding reaction.
For orientation: TR-FRET usually uses a lanthanide donor and a delayed reading to cut background.

`CCS(=O)(=O)c1ccc(OC)c(Nc2ncc(-c3cccc(OC)c3)o2)c1` [N-[5-(ethanesulfonyl)-2-methoxyphenyl]-5-(3-methoxyphenyl)-1,3-oxazol-2-amine]: the IC50 (in general, the concentration that gives 50% inhibition) is 36 nM.
